Earlier results as cited in article PMC3776131 (Bioorganic & medicinal chemistry letters, 2013).

By UniProt entry, the sequences of proteins in these tests, tags left out. Where a name states a change or a piece, a line headed by the entry shows the natural chain unless it says otherwise.
UniProt P33535, whole entry: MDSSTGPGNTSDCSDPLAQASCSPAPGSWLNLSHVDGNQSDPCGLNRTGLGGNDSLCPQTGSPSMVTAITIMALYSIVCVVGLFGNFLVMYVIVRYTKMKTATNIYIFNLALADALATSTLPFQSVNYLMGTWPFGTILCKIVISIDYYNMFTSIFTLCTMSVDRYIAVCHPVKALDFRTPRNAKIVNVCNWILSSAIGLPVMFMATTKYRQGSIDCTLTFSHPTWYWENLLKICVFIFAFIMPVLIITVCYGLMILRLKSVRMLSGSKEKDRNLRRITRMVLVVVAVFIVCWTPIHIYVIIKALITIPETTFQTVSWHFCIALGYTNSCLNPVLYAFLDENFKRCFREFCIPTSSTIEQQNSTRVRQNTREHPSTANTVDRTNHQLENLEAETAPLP
UniProt P41144: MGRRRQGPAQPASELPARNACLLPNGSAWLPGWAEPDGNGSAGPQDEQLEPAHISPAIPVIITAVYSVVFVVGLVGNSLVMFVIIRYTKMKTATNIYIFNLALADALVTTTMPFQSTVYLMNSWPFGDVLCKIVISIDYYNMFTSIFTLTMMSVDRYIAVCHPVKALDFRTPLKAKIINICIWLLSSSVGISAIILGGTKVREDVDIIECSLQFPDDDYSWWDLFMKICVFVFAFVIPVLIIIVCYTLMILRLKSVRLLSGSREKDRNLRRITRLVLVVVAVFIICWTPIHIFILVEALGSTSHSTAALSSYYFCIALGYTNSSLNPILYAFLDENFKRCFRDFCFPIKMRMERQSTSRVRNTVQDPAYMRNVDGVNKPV
UniProt P33533, whole entry: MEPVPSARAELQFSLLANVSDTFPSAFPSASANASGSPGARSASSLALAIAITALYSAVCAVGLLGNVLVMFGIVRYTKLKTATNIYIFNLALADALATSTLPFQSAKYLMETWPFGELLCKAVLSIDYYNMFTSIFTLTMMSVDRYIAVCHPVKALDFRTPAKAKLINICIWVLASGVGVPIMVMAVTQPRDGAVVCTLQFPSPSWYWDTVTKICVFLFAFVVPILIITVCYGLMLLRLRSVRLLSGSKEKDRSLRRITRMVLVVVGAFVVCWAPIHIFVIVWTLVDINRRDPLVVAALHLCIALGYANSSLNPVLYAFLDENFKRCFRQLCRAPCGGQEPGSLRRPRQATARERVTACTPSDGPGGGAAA

Assays:
μ opioid receptors = μ opioid receptors (Rattus norvegicus, UniProt P33535); conditions: read-out: Ki^μ; [3H]DAMGO, rat brain membranes; cited from earlier work
κ opioid receptor = κ opioid receptor (Cavia porcellus, UniProt P41144); conditions: read-out: Ki^κ; [3H]U69,593, guinea pig brain membranes; cited from earlier work
δ opioid receptors = δ opioid receptors (Rattus norvegicus, UniProt P33533); conditions: read-out: Ki^δ; [3H]DSLET, rat brain membranes; cited from earlier work

## H-Tyr-Tic-Phe-Phe-OH [Compound 1a]
μ opioid receptors
  Ki: 1.72 ± 0.05 µM
κ opioid receptor
  Ki: > 1 µM

## H-Dmt-Tic-Phe-Phe-NH2 [Compound 4a]
κ opioid receptor
  Ki: > 1 µM

## H-Dmt-Tic-Phe-Phe-OH [Compound 2a]
δ opioid receptors
  Ki: 0.000248 ± 2.5e-05 µM
κ opioid receptor
  Ki: > 1 µM

## H-Tyr-Ticψ[CH2NH]Phe-Phe-OH [Compound 3a]
κ opioid receptor
  Ki: > 1 µM

## H-Dmt-Ticψ[CH2NH]Phe-Phe-NH2 [Compound 5a]
κ opioid receptor
  Ki: > 1 µM
